The IC50 is the point on the concentration scale where inhibition reaches its midpoint. Read a low IC50 as inhibition by little substance.

Each structure is given as a SMILES string.

This assay has as its target T1, Stearoyl-CoA desaturase (Homo sapiens, UniProt O00767).
T1 sequence (O00767 whole entry): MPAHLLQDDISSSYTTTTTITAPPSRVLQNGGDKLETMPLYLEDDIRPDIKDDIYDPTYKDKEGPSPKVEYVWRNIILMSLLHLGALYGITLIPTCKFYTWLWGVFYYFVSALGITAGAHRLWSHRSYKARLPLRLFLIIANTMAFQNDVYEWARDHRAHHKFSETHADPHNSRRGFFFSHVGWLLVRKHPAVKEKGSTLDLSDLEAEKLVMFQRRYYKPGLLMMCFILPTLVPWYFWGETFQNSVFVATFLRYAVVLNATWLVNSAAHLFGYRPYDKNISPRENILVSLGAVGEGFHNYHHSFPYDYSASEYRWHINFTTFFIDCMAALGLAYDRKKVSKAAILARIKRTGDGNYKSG
Briefly: Inhibition of SCD1 in human HepG2 cells. It is filed as cell-based.

Consider `Nc1ncnc2[nH]c(N3CCC(Oc4ccccc4C(F)(F)F)CC3)nc12`, for which the IC50 was 162 nM. In other words, the sub-micromolar range.

(Values after ChEMBL document CHEMBL1833926, “Bicyclic heteroaryl inhibitors of stearoyl-CoA desaturase: from systemic to liver-targeting inhibitors” (Bioorg Med Chem Lett, 2011).)
